This note sets out measurements from PMC2920453 (Chemistry & biology, 2010).

Chains of the proteins cited; added tags and fusions are not shown. Lines headed by an entry give the natural chain unless they say otherwise; changes in a name come on top. Residues count along the entry.
UniProt P41212: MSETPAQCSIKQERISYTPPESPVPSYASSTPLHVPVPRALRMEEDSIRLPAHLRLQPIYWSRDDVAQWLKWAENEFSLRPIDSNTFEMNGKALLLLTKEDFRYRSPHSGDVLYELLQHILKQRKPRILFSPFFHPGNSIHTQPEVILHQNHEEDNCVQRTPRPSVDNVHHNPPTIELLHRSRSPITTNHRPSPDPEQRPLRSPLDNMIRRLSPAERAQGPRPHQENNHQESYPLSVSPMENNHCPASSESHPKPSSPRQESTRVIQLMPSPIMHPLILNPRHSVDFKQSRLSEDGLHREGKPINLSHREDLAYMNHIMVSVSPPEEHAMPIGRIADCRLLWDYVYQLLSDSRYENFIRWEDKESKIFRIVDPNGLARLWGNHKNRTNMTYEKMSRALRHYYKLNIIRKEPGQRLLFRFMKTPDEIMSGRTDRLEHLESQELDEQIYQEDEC
UniProt P51451, 241-494 limits assumed: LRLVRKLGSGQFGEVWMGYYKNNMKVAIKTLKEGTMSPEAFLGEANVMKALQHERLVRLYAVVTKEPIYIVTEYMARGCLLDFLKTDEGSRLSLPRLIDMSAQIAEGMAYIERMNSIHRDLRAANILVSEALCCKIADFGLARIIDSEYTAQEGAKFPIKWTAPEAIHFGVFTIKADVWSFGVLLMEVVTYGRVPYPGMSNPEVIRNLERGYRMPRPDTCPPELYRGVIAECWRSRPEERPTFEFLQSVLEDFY
UniProt P51813, 417-675 limits assumed: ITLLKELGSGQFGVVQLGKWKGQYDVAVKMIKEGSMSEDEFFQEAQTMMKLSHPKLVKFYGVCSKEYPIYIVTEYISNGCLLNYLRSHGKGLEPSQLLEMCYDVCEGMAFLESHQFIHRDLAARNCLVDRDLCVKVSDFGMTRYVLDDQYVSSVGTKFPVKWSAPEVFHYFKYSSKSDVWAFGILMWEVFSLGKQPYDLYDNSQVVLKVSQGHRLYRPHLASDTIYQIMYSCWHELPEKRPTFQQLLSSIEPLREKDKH
UniProt O60674, 849-1124 limits assumed: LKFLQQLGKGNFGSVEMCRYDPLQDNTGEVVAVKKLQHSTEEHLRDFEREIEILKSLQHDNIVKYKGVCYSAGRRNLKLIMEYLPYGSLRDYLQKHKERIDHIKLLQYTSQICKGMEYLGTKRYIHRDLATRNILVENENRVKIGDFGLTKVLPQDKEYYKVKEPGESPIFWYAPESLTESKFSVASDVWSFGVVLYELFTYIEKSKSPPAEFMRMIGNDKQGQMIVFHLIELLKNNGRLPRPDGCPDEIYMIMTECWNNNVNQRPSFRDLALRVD

SMILES strings stand for the structures.

What all share (settings): 48 hours
The target in assay [1] is Tel-Blk transformed Ba/F3 cells (Homo sapiens, UniProt P41212+P51451).
The target in assay [2] is Tel-Bmx transformed Ba/F3 cells (Homo sapiens, UniProt P41212+P51813).
For assay [3], the target named is Tel-Jak2 transformed Ba/F3 cells (Homo sapiens, UniProt O60674+P41212).

As for `C=CC(=O)Nc1cccc(CN2C(=O)N(c3c(Cl)c(OC)cc(OC)c3Cl)Cc3cnc(NCCCCN(CC)CC)nc32)c1` [FIIN-1], the 50% effective concentration (EC50) in assay [1] came out at 2000 nM; in assay [2] it was 2000 nM; in assay [3], 5 µM.
